Source: patent publication US6635432B1, “Peptide potentiation of acid-sensory ion channel in pain” (University of Iowa Research Foundation, priority 2000, dated 2003)

Assays:
ASICα = molecular target: T1, ASICα (Homo sapiens, UniProt P78348); assay: Two-electrode voltage-clamp of Xenopus oocytes expressing ASICα; assay type: cell-based; parameters: expressed in transfected cells; host or cells: Xenopus laevis oocytes (nuclear injection of pMT3 plasmid)
T1 sequence (P78348 1-528): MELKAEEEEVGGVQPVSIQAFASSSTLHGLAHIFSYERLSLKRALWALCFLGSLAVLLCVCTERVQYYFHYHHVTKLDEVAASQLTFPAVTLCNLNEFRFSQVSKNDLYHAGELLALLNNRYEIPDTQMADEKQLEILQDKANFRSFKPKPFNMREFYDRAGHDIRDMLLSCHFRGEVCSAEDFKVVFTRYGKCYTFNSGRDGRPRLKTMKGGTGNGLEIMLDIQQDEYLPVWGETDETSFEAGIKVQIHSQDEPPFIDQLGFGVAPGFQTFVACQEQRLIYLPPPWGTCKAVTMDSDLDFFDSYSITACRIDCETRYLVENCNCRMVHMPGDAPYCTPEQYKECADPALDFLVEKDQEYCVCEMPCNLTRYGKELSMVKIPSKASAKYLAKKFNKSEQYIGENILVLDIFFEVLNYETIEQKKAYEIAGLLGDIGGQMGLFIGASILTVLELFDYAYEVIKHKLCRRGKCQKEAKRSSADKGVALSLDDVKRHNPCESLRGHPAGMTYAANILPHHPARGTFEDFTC
From the text: Human ASICα was cloned from brain polyA RNA. Rat ASICβ and mouse DRASIC were cloned from DRG RNA. Human BNC1 was cloned as described in Price et al. (1996)(Price, M. P., Snyder, P. M., and Welsh, M. J. (1996). Cloning and expression of a novel human brain Na^+ channel. J Biol Chem 271, 7879-7882). Constructs were cloned into pMT3 for expression.
Expression of the cDNA constructs in Xenopus oocytes was accomplished by injection of plasmid DNA into the nucleus of defolliculated albino Xenopus laevis oocytes (Nasco, Fort Atkinson, Wis.) as described previously (Adams, C. M., Snyder, P. M., Price, M. P., and Welsh, M. J. (1998). Protons activate brain Na^+ channel 1 by inducing a conformational change that exposes a residue associated with neurodegeneration. J Biol Chem 273, 30204-30207). Plasmids were injected at concentrations of 100 ng/μl for most experiments. Oocytes were incubated in modified Barth's solution at 18° C. for 12-26 hr after injection. Cells injected with DRASIC were allowed to incubate for 24-48 hr before analysis.
Whole-cell currents in oocytes were measured using a two-electrode voltage-clamp as previously described (Adams, et al. (1998)). Oocytes were bathed in frog Ringers solution containing, in mM: 116 NaCl, LiCl or KCl, 0.4 CaCl2, MgCl2, 5 4-(2-hydroxyethyl)-1-piperazineethanesulfonic acid (HEPES), pH 7.4. Acidic solutions were buffered with 5 mM 2-(4-morpholino)-ethanesulfonic acid (MES) instead of HEPES. Membrane voltage was held at −60 mV unless otherwise noted. Most peptides and naloxone were obtained from Sigma Chemical Co. (St. Louis, Mont.) and were added to the extracellular solution. The peptide FRRFamide was synthesized by Research Genetics (Huntsville, Ala.).

[1] = test system: proton-gated currents in cultured rat DRG neurons; assay: Whole-cell patch-clamp of proton-gated currents in cultured DRG neurons; assay type: cell-based
Procedure: Rat DRG neurons were cultured from Norway rats as described in Benson et al. (1999)(Benson, C. J., Eckert, S. P., and McCleskey, E. W. (1999). Acid-evoked currents in cardiac sensory neurons: A possible mediator of myocardial ischemic sensation. Circulation Research 84, 921-928). Cells were allowed to incubate overnight at room temperature and studies were done 1 to 2 days after isolation.
During whole-cell patch-clamping of DRG neurons and transfected HEK-293T cells, the cells were bathed with an extracellular solution that contained, in mM: 128 NaCl, 5 MgCl2, 1.8 CaCl2, 5.4 KCl, 5.55 glucose, 20 HEPES, pH 7.5 or 5. The pipette solution contained, in mM: 120 KCl, 10 NaCl, 2 MgCl2, 5 EGTA, 10 HEPES. Perfusion of cells with different solutions was done by placing the appropriate outlet in front of the cell. Data were recorded with an AXOPATCH 200 (Axon Instruments, Foster City, Calif.) and stored on a digital tape recorder. Digitization was executed by acquiring data at 400 Hz using pClamp6 (Axon Instruments, Foster City, Calif.).
Whole-cell patch-clamp recordings were used to investigate the effect of FMRFamide on proton-gated currents in cultured rat DRG neurons. […]

CSCC[C@H](NC(=O)[C@@H](N)Cc1ccccc1)C(=O)N[C@@H](CCCNC(=N)N)C(=O)N[C@@H](Cc1ccccc1)C(N)=O [FMRFamide, Phe-Met-Arg-Phe amide]
EC50 (ASICα): ~33 µM | pH sensitivity of FMRFamide-induced sustained current (ASICα; FMRFamide 50 μM): showed sensitivity to a broader pH range compared to the transient current | effect on pH sensitivity of the transient current (ASICα; FMRFamide 50 μM added prior to acidification): did not alter the pH sensitivity of the transient current | sustained current on acidification after washout of FMRFamide (ASICα; FMRFamide applied at pH 7.4, then 80 sec wash at pH 7.4): acidification generated no sustained current | Ca2+ conductance of the sustained current (ASICα; FMRFamide-induced sustained current): did not show Ca^2+ conductance | channel closure on return to pH 7.4 in continued presence of FMRFamide (ASICα; oocytes): did not prevent channel closure when pH was returned to 7.4 | dependence of sustained current on sequence of FMRFamide and acid addition (ASICα; oocytes, FMRFamide 50 or 100 μM, pH 5): The largest sustained currents required FMRFamide addition before lowering the extracellular pH | effect on H+-gated ASICα current (inactivation, sustained current) (ASICα; oocytes, pH 5, agents 50 μM (A18Famide 25 μM), added prior to and during acidification): slowing of inactivation and the appearance of a sustained current at pH 5 | effect on I-V relationship of the peak current (ASICα; pH 5, FMRFamide 50 μM): not altered | slope conductivity sequence of the sustained current (ASICα; pH 5, FMRFamide 50 μM): Na^+≧Li^+>K^+ | effect of peptide alone on channel (ASICα; pH 7.4, oocytes): had no effect on either channel | persistence of sustained current after removal of FMRFamide (ASICα; pH reduced while simultaneously removing FMRFamide, 80 sec pH 5 wash): the sustained current persisted throughout an 80 sec pH 5 wash and beyond | effect on inactivation of proton-gated current and sustained current ([1]; pH 5, FMRFamide 50-100 μM, neuropeptide FF 50 μM): the inactivation of proton-dependent current slowed, and in many neurons, there was a sustained current in the continued presence of acid | current generated by agent added alone ([1]; without acidification): generated no response
